# Reference: PubChem BioAssay AID504467 (National Center for Advancing Translational Sciences (NCATS), 2011)
# The entries are a selection whose mix differs from that of the whole data set. Some of these compounds have results that are not shown, active ones among them. Results filed as inconclusive are left out. The source made the active and inactive calls. The call rests on the fitted dose curve; in most records, active means well fitted inhibition curve with a large enough effect; inconclusive means small, poorly fitted or top-dose-only effect, or effect the other way; inactive means flat fitted curve, though single readings scatter.
# Experiment: qHTS screen for small molecules that inhibit ELG1-dependent DNA repair in human embryonic kidney (HEK293T) cells expressing luciferase-tagged ELG1; further: nearly all actives have a fitted effect of over 55% in size
# Details: HEK293T ELG1-luciferase reporter, luminescence, 16 h, DNA damage induced by 5-fluorouridine; at 46.1 µM (top of the series)
# On the % scale 0 is the no-effect control and ±100 the full control effect.
row,SMILES,"activity change, negative = inhibition"
1,COc1ccc(Br)c(C(=O)NCC2(N3CCCCC3)CCCCC2)c1,inactive: 17.7%
2,CN(C)c1cccc(C(=O)NCC2(N(C)C)CCCCC2)c1,inactive: 16%
3,O=C(OC1CN2CCC1CC2)C(CO)(c1ccccc1)c1ccccc1 (centres undefined),inactive: 4.51%
4,COc1ccc(Cl)cc1C(=O)NCC1(N(C)C)CCCCC1,inactive: 0.101%
5,CN(C)C1(CNC(=O)c2ccc(Br)cc2)CCCCC1,inactive: 4.61%
6,COc1cc(C(=O)NCC2(N(C)C)CCCCC2)c([N+](=O)[O-])cc1OC,inactive: 0%
7,C=CCN1CCN(CCOC(=O)C(O)(c2ccccc2)c2ccccc2)CC1,inactive: 5.41%
8,COc1ccc(C(=O)NCC2(N(C)C)CCCCC2)cc1,inactive: 17.1%
9,Cc1cc(C(=O)NCC2(N3CCCCC3)CCCCC2)ccc1[N+](=O)[O-],inactive: -7.39%
10,CCN1CCCC(OC(=O)C2(O)c3ccccc3C=Cc3ccccc32)C1 (centres undefined),inactive: -10.4%
11,Cc1ccccc1C(=O)NCC1(N2CCCCC2)CCCCC1,inactive: 2.2%
12,CN(C)C1CCCC1OC(=O)C(O)(c1ccccc1)c1ccccc1 (centres undefined),inactive: 1.8%
13,CN(C)c1ccc(C(=O)NCC2(N(C)C)CCCCC2)cc1,inactive: 0%
14,CCN(CC)CC(C)C(C)OC(=O)C(O)(c1ccccc1)c1ccccc1 (centres undefined),inactive: -5.34%
15,COc1cc(SC)ccc1C(=O)NCC1(N(C)C)CCCCC1,inactive: 3.46%
16,CC(C)N1C(=O)CC2(CCN(CCOC(=O)C(O)(c3ccccc3)c3ccccc3)CC2)C1=O,inactive: 11%
17,Cc1ccc(C(=O)NCC2(N3CCCCC3)CCCCC2)cc1,inactive: 29.6%
18,O=C(NCC1(N2CCCCC2)CCCCC1)c1cc([N+](=O)[O-])ccc1Cl,inactive: 22.6%
19,CN1[C@@H]2CC[C@H]1CC(OC(=O)C(O)(c1ccccc1)c1ccccc1)C2 (some centres undefined),inactive: 14.1%
